How the values were obtained:
[1] = system: HER2-expressing SK-OV-3 cells; assay: immunoreactive fraction; format: cell-based
[2] = system: HER2-expressing SK-OV-3 cells; assay: IC50 on SK-OV-3 cells; format: binding
[3] = system: HER2-expressing SK-OV-3 cells; assay: internalization capacity; format: cell-based; conditions: after 2 h
[4] = system: Her-2-positive (HCC1954) cell line; assay: cell binding and internalisation, HCC1954; format: cell-based; conditions: HCC1954 cells; for cell binding uptake: at 4nM; for cell binding percentage: at 100nM
Protocol: (§1) Methods: Trastuzumab, dialysed against 50 mM EDTA, washed and recovered in metal-free HEPES buffer, was conjugated with tripodal tris(hydroxypyridinone) (THP) (3.23 mg trastuzumab, 0.8 mM H3THP-Ph-SCN; 260 μL) and purified by size exclusion chromatography (SEC). DOTA-trastuzumab was also prepared similarly. DOTA-trastuzumab was labelled with ^111In chloride at 40°C, pH 5.5 for two hours whereas THP-trastuzumab was labelling with ^67Ga chloride at room temperature, pH 6.5, for 15 minutes. SEC purification was performed when labelling efficiencies were <95%. Radiopharmaceuticals (0.19 MBq/μg) were tested for their internalisation and effects on viability (dye exclusion) and clonogenicity of Her-2-positive (HCC1954) and –negative (MDA-MB-231) cell lines. Microautoradiography of cells in 18% gelatine was also performed.

[5] = system: MDA-MB-231 cells; assay: cell binding, MDA-MB-231; format: cell-based; conditions: Her-2-negative cell line
Protocol: as §1

[6] = system: HCC1954 cells; assay: clonogenicity, HCC1954; format: cell-based; conditions: approximately 0.1 Bq/cell
Protocol: as §1

Row | Substance | immunoreactive fraction [1] | IC50 [2] | internalization [3] | proportion internalised [4] | cell binding uptake [4] | cell binding percentage [4] | binding in MDA-MB-231 cells [5] | surviving fraction [6]
1 | ^89Zr-DFO-cyclo*-trastuzumab: trastuzumab conjugated with DFO-cyclo*-pPhe-NCS and radiolabeled with 89Zr | 65% | 2.89 nM | 26.6 ± 1.1% | – | – | – | – | –
2 | ^67Ga-THP-trastuzumab: trastuzumab conjugated with tris(hydroxypyridinone) and labelled with 67Ga | – | – | – | 62.08±1.43% | 10.69±1.32% | 1.15±0.98% | < 0.2% | 0.38±0.13
3 | ^89Zr-DFO-trastuzumab: trastuzumab conjugated with DFO-pPhe-NCS and radiolabeled with 89Zr [reference compound] | 61% | 2.93 nM | 22.4 ± 1.5% | – | – | – | – | –
4 | ^111In-DOTA-trastuzumab | – | – | – | 60.78±15.45% | 6.15±1.64% | 0.83±0.85% | < 0.2% | 0.55 ± 0.16
